Data on eight compounds can be found in ChEMBL document CHEMBL5131460, “Glenthenamines A-F: Enamine Pyranonaphthoquinones from the Australian Pasture Plant Derived Streptomyces sp. CMB-PB042” (J Nat Prod, 2022).

The assay can be described thus: Gain in sensitivity, ratio of IC50 for reversal of P-gp mediated doxorubicin resistance in human SW620/AD300 cells overexpressing P-gp by measuring doxorubicin IC50 in absence of compound to IC50 for reversal of P-gp mediated doxorubicin resistance in human SW620/AD300 cells overexpressing P-gp by measuring doxorubicin IC50 in presence of compound. The format is cell-based.
For `COC(=O)C[C@H]1Cc2c(c(O)c3c4c(c5n(c24)[C@H]([C@@H](C)O)CC5)C=CC3=O)[C@H](C)O1`, the Ratio IC50 amounted to 4.8. Take `C[C@H]1Oc2c(O)c3c4c(c5n(c4c2C[C@H](CC(=O)O)O1)[C@H]([C@@H](C)O)CC5)C=CC3=O`: the Ratio IC50 was 1.14. Turning to `C[C@H]1OC(CC(=O)O)=Cc2c1c(O)c1c3c(c4n(c23)[C@H]([C@@H](C)O)CC4)C=CC1=O`, the Ratio IC50 came to 3.9. Consider `C[C@@H]1O[C@@H](CC(=O)O)C(=O)c2c1c(O)c1c3c(c4n(c23)[C@H]([C@@H](C)O)CC4)C=CC1=O`, for which the Ratio IC50 was found to be 3.8. Regarding `C[C@H]1O[C@H](CC(=O)O)Cc2c1c(O)c1c3c(c4n(c23)[C@@H]([C@@H](C)O)CC4)C=CC1=O`, the Ratio IC50 turned out to be 3.7. With `C[C@H]1O[C@]2(C)CC(=O)O[C@]2(C)c2c1c(O)c1c3c(c4n(c23)[C@@H]([C@@H](C)O)CC4)C=CC1=O`, the Ratio IC50 came out at 0.75. Take `C[C@@H]1OC(CC(=O)O)=Cc2c1c(O)c1c3c(c4n(c23)[C@H]([C@@H](C)O)CC4)C=CC1=O`: the Ratio IC50 was found to be 5.7. With `C[C@@H](O)[C@@H]1CCc2c3c4c(c(O)c(O)c(C[C@@H](O)CC(=O)O)c4n21)C(=O)C=C3` the figure was 1.28.
